Amino acid sequences for entries named in this document (tags omitted). A change or cut given only in a name is not applied to a line headed by its entry.
UniProt P52333: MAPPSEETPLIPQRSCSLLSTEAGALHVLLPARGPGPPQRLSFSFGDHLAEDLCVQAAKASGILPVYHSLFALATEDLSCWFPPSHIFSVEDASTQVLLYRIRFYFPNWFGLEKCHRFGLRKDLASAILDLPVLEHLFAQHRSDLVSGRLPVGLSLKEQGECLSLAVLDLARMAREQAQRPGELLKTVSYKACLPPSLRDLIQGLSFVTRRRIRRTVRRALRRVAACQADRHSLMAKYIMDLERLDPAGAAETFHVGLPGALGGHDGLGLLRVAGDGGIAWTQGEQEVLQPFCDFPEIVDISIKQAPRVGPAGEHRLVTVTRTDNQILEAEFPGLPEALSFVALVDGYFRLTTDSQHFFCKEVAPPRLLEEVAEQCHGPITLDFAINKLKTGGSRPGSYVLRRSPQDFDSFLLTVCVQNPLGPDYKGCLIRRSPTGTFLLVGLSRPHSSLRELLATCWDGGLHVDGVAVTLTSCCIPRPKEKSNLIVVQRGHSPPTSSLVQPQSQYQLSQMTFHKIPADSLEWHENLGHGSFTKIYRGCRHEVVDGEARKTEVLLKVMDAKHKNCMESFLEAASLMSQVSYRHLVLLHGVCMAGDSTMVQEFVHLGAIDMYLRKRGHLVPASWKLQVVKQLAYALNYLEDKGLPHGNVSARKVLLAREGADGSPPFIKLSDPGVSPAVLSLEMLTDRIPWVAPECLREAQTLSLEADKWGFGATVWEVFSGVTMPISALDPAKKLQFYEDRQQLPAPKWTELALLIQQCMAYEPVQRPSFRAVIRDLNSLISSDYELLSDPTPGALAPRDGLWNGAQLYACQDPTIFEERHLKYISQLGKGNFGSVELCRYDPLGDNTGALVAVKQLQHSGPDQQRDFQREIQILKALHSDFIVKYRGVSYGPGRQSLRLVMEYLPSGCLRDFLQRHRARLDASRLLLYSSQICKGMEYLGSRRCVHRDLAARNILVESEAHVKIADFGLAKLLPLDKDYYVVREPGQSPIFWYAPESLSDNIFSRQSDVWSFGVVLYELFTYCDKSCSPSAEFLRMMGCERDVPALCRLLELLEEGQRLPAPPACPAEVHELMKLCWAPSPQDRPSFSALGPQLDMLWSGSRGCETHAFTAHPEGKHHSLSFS

According to US9862688B2, “Hydrophobically tagged janus kinase inhibitors and uses thereof” (Dana-Farber Cancer Institute, Inc., priority 2014, dated 2018):

Assays:
JAK3 = JAK3 (Homo sapiens (Human), UniProt P52333); assay: INVITROGEN Select Screening in vitro kinase activity assay; assay type: biochemical; settings: enzymatic
Source text: The in vitro activity of the compounds described herein in inhibiting JAK3 and other kinases were obtained using an INVITROGEN Select Screening assay as known in the art.

Ba/F3 JAK3 = assay: Ba/F3 cell proliferation analysis (CellTiter-Glo), JAK3; assay type: cell-based, murine; settings: Mus musculus, BaF3, 72 h, Ba/F3 cells, 72 hours at 37° C., cell viability
Method: (§1) Cell Proliferation Analysis
(§2) CellTiter-Glo® Luminescent cell viability assay (Promega) was used to assess cell survival following treatment with the compounds described herein. Cells were seeded into 384 well plates with the EL406 Combination Washer Dispenser (BioTek Instruments, Inc.), and the compounds were injected into the cells culture media with the JANUS Automated Workstation (PerkinElmer Inc.). Cells were treated with a series diluted inhibitors (20 to 0.04 μM) for 72 hours at 37° C. Luminescent measurement is performed using the 2104 Envision® Multilabel Reader (PerkinElmer Inc.). The cell lines employed include Ba/F3 (a murine interleukin-3 dependent pro-B cell line), NKL (a Natural Killer Cell Lymphoma (NKCL) cell line), CMK (an Acute Megakaryoblastic Leukemia (AMKL) cell line).

[1] = tested on: CMK (an Acute Megakaryoblastic Leukemia (AMKL) cell line); assay: Cancer cell line proliferation analysis (CellTiter-Glo), CMK; assay type: cell-based; settings: Homo sapiens; CMK cells, 72 hours at 37° C., cell viability; read-out: Cancer cell lines IC50 (nM) CMK
Method: as §1, §2

Ba/F3 JAK1 = assay: Ba/F3 cell proliferation analysis (CellTiter-Glo), JAK1; assay type: cell-based, murine; settings: Mus musculus, BaF3; Ba/F3 cells, 72 hours at 37° C., cell viability
Method: as §1, §2

Ba/F3 JAK2 = assay: Ba/F3 cell proliferation analysis (CellTiter-Glo), JAK2; assay type: cell-based, murine; settings: Mus musculus, BaF3; Ba/F3 cells, 72 hours at 37° C., cell viability
Method: as §1
as §2, with “Luminescent measurement is performed using the 2104 Envision® Multilabel Reader (PerkinElmer Inc.).” left out

Ba/F3 ABL = assay: Ba/F3 cell proliferation analysis (CellTiter-Glo), ABL; assay type: cell-based, murine; settings: Mus musculus, BaF3; Ba/F3 cells, 72 hours at 37° C., cell viability
Method: as §1
as §2, with “Luminescent measurement is performed using the 2104 Envision® Multilabel Reader (PerkinElmer Inc.).” left out

IC50 (JAK3) [nM] | IC50 (Ba/F3 JAK3) [nM] | IC50 [1] [nM] | IC50 (Ba/F3 JAK1) [nM] | IC50 (Ba/F3 JAK2) [nM] | IC50 (Ba/F3 ABL) [nM] | SMILES
55.5 | 482 | 726 | – | – | – | C=CC(=O)Nc1cccc(CNc2nc(Nc3ccc(N4CCN(CCNC(=O)CC5[C@H]6C[C@@H]7C[C@@H](C[C@H]5C7)C6)CC4)cc3OC)ncc2Cl)c1 (some centres unmarked) [Compound 1]
– | – | – | 3350 | 3110 | 3040 | C=CC(=O)Nc1cccc(CNc2nc(Nc3ccc(N4CCN(CCCNC(=O)CC5[C@H]6C[C@@H]7C[C@@H](C[C@H]5C7)C6)CC4)cc3OC)ncc2Cl)c1 (some centres unmarked) [Compound 2]
– | – | – | – | 1370 | 1970 | C=CC(=O)Nc1cccc(CNc2nc(Nc3cnn(CCN4CCN(C(=O)CC5[C@H]6C[C@@H]7C[C@@H](C[C@H]5C7)C6)CC4)c3)ncc2Cl)c1 (some centres unmarked) [Compound 5]
